Results as given in patent US20230026616A1, “PYRIMIDOIMIDAZOLE COMPOUNDS USED AS DNA-PK INHIBITORS” (MEDSHINE DISCOVERY INC., priority 2019, published 2023).

Amino acid sequences for entries named in this document (tags omitted).
UniProt P78527, whole entry: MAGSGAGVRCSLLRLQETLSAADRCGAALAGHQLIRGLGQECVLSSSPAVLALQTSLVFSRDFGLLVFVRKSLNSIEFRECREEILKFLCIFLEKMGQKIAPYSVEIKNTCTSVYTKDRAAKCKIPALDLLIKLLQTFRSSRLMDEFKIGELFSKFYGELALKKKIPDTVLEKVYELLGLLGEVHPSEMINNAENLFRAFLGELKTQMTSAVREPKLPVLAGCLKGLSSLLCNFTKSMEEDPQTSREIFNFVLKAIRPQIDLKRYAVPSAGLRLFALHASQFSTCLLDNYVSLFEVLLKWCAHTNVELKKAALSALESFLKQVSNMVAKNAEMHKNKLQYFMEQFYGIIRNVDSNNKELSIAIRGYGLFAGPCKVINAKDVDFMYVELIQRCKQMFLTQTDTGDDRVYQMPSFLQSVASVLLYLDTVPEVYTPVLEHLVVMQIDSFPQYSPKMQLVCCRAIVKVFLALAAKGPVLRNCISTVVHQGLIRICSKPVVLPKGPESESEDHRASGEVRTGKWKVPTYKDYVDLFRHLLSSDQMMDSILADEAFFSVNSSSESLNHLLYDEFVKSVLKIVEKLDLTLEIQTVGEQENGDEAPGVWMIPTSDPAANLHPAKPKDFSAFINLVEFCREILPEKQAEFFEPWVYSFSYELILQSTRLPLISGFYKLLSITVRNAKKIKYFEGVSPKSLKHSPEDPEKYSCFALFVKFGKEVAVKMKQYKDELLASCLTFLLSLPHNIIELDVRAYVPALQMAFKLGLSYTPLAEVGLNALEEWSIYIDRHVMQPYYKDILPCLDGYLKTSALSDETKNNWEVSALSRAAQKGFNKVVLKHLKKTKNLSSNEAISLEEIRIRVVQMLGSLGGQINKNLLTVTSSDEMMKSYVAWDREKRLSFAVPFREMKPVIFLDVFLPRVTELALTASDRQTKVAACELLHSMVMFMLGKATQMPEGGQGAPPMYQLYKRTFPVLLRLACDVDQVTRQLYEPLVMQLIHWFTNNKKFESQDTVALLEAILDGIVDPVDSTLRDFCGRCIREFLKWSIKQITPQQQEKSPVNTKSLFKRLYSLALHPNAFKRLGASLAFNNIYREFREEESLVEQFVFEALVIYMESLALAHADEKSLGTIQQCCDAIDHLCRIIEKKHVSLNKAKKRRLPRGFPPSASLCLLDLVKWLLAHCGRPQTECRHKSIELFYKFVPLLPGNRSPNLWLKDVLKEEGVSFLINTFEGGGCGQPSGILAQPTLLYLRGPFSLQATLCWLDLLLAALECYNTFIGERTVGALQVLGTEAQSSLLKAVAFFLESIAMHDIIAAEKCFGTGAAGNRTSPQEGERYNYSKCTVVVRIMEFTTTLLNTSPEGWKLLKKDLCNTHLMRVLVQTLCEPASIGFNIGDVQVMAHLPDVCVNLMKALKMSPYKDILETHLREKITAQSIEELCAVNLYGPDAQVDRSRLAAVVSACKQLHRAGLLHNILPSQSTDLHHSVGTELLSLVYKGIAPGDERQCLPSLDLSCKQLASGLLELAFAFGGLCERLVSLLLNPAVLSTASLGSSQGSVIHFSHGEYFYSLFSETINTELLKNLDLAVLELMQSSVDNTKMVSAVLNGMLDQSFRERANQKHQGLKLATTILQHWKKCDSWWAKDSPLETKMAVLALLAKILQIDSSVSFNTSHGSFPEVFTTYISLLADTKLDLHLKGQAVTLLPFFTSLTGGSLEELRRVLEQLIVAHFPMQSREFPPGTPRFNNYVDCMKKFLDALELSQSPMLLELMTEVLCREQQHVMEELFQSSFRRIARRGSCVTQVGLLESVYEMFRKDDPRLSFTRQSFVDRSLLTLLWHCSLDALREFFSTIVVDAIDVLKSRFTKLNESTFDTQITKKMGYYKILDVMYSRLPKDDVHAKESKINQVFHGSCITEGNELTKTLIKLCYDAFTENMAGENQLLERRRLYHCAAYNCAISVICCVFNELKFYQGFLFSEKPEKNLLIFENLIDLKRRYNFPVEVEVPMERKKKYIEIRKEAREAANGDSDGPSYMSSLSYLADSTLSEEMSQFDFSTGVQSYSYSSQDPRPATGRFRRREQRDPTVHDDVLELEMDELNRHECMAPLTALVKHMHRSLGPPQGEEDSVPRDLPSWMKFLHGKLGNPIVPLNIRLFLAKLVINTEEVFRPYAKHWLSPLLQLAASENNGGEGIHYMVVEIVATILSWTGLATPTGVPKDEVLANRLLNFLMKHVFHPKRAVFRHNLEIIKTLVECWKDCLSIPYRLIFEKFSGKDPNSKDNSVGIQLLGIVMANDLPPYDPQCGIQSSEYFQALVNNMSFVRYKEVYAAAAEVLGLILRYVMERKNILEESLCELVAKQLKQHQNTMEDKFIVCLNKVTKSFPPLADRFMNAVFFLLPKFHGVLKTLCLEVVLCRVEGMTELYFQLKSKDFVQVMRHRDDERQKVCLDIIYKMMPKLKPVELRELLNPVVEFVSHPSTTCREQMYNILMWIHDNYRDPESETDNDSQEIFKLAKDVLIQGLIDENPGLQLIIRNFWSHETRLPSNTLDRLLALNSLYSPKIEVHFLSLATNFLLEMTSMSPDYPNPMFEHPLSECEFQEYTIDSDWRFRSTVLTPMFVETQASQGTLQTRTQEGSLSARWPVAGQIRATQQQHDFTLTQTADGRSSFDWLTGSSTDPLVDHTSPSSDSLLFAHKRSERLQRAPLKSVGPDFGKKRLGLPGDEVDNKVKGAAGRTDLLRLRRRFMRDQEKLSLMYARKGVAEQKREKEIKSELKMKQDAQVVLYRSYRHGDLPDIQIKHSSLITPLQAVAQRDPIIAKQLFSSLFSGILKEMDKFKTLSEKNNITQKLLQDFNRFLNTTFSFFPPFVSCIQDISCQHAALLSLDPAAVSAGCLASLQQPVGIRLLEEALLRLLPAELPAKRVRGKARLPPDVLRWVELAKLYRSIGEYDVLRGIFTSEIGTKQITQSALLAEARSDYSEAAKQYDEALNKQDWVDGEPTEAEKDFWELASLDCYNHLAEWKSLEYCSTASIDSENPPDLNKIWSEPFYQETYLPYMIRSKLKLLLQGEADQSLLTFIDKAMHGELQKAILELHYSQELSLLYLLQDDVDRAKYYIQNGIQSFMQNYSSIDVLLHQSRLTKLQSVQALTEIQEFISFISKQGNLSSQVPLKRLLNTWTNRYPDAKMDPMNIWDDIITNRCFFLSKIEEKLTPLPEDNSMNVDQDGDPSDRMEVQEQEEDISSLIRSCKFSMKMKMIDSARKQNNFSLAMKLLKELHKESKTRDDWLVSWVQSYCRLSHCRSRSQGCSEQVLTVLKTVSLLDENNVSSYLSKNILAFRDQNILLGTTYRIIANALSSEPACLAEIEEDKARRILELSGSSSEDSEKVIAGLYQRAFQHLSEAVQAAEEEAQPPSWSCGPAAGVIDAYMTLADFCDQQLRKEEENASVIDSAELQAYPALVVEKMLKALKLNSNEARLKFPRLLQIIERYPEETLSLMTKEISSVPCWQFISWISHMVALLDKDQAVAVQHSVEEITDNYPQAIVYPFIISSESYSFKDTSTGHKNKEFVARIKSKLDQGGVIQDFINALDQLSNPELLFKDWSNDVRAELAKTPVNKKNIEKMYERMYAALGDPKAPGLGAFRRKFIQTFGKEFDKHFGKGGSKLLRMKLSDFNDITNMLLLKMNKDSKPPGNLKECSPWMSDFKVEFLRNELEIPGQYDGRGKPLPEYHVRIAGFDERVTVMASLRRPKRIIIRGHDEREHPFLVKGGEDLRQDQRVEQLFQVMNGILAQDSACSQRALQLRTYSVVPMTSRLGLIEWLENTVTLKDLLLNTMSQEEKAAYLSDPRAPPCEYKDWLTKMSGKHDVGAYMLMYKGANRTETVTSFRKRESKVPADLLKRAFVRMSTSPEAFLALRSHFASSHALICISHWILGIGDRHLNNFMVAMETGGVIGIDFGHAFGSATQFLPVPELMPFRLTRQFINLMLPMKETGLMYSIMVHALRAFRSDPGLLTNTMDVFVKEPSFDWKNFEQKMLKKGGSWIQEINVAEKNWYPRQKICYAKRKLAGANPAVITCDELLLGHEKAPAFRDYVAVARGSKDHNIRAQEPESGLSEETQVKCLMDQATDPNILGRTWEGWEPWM
UniProt P12956, whole entry partner: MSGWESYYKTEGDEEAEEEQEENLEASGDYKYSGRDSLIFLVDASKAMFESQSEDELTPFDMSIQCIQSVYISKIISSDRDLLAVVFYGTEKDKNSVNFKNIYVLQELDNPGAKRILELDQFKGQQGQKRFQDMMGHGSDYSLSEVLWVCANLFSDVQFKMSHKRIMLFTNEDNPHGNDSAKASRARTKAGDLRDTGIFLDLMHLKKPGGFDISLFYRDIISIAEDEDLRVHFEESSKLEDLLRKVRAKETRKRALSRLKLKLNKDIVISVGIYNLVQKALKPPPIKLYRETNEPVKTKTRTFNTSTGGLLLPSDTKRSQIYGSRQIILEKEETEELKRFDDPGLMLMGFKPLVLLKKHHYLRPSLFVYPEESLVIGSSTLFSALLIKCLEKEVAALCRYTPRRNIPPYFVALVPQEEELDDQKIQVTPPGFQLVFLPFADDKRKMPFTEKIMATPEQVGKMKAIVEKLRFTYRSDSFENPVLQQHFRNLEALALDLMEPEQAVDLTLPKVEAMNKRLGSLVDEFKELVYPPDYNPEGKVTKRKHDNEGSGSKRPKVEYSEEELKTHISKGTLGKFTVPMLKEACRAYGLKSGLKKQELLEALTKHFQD
UniProt P13010, whole entry partner: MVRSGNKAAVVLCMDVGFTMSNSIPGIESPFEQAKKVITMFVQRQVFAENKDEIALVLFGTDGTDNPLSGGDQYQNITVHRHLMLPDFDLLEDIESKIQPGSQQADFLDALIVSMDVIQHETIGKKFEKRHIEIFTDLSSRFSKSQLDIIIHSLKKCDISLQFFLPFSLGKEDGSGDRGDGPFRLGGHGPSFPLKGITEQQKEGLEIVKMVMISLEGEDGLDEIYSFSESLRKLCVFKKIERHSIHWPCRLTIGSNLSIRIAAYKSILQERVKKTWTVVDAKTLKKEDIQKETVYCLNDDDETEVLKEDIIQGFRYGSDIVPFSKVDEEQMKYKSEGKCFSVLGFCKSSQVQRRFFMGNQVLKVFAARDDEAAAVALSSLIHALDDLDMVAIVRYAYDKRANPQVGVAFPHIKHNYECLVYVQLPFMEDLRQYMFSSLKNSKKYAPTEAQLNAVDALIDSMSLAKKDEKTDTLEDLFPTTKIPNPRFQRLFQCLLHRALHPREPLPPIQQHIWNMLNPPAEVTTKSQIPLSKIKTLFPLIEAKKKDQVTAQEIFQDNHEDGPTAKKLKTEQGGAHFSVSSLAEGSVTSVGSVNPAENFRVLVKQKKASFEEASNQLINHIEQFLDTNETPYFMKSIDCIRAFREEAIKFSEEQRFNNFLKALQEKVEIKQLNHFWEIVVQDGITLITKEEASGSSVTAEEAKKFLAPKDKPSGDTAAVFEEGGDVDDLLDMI

Molecular target: Human DNA-PK (Homo sapiens, UniProt P78527)
Test: DNA-dependent protein kinase (DNA-PK) inhibitory activity screening (Eurofins, HTRF)
Details: read-out: DNA-PK kinase inhibition IC50; ATP: 10 μM
Description: Experimental Embodiment 1: DNA-Dependent Protein Kinase (DNA-PK) Inhibitory Activity Screening Experiment
This experiment was tested in the Eurofins
Human DNA-PK; Mg/ATP; GST-cMyc-p53; EDTA; Ser15 antibody; ATP: 10 μM.
Experimental Method (Eurofins Pharma Discovery Service):
DNA-PK (h) was incubated in assay buffer containing 50 nM GST-cMyc-p53 and Mg/ATP (according to the required concentration). The reaction was initiated by adding Mg/ATP mixture. After 30 minutes of incubation at room temperature, the reaction was stopped by adding a stop solution containing EDTA. Finally, detection buffer (containing labeled anti-GST monoclonal antibody and europium-labeled anti-Ser15 antibody against phosphorylated p53) was added. The plate was then read in time-resolved fluorescence mode, and the homogeneous time-resolved fluorescence (HTRF) signal was determined according to the formula HTRF=10000×(Em665 nm/Em620 nm).

Cc1cc2ncnn2cc1Nc1ncc2c(n1)n(N1CC3CC1CO3)c(=O)n2C (single isomer, unassigned) [Compound 8]
pIC50: 8.15

Cc1cc2ncnn2cc1Nc1ncc2c(n1)n(N1CC3CC1CO3)c(=O)n2C (single isomer, unassigned) [Compound 9]
pIC50: 8.52

pIC50: −log10 of the molar value.
